Biological target: 5-hydroxytryptamine receptor 2A (Rattus norvegicus, UniProt P14842)
Assay: Tested for its ability to activate phospholipase C by quantification of IP3 at cloned rat 5-hydroxytryptamine 2A receptor
Procedure, shortened: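 Rat 5-HT2A-expressing cells at 70% confluency were labelled for 18-20 h with 1.0 µCi/mL [3H]-myo-inositol. They were pretreated for 15 min with 10 µM pargyline/10 mM LiCl, then exposed to drug for 30 min at 37 °C. Formic acid stopped the reaction. [3H]inositol phosphates were separated on Dowex-1 columns. Efficacy is expressed relative to serotonin.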

Sequences of proteins named here, by UniProt entry; tags and fusion partners are left off.
UniProt P14842, whole entry: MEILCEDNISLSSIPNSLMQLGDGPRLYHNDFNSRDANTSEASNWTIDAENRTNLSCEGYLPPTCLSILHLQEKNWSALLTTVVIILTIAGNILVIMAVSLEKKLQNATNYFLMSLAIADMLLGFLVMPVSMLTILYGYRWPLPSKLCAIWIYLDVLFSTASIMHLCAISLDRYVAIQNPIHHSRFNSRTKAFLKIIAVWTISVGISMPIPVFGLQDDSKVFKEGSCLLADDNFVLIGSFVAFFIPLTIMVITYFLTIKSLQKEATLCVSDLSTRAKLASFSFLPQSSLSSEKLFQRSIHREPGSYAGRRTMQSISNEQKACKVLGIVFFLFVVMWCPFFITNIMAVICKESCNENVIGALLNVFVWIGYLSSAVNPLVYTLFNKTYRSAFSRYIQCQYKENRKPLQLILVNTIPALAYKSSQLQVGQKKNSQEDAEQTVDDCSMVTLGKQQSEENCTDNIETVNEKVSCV

`CCN(CC)C(=O)[C@@H]1C=C2c3cccc4[nH]cc(c34)C[C@H]2N(C)C1` [LYSERGIDE] showed an EC50 of 9.8 nM.
